TDP1 cell noCPT: qHTS for Inhibitors of human tyrosyl-DNA phosphodiesterase 1 (TDP1): qHTS in cells in absence of CPT; DT40 Tdp1-/- hTDP1 cells, no CPT, ATP luminescence, 48 h; Potency, µM (highest dose often 46.2 µM), for inactives: at the top dose activity change, negative = growth inhibition, usual class: inhibitors; 420,000 compounds, 15% hits; also: potency is read from the fitted curve at half-maximal effect; % is scaled to controls: 0 for no effect and ±100 for the full control effect; nearly all actives have a fitted effect of over 55% in size
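Readout: luminescence from CellTiter-Glo after 30 min in the dark at RT. Cells: DT40 Tdp1-/- with stable hTDP1, 400/well. Exposure: compounds alone, ≥48 hr, 37 °C.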
TDP1 cell CPT: growth inhibition of DT40 Tdp1-/-;hTDP1 cells with camptothecin (screen for TDP1 inhibitors); chicken DT40 Tdp1-/-;hTDP1 cells + 20 nM CPT, ATP luminescence, 48 h; Potency, µM (top dose mostly 46.2 µM), without a hit: at the highest dose activity change, negative = growth inhibition, most hits filed as inhibitors; 420,000 compounds, 12% hits; also: potency is read from the fitted curve at half-maximal effect; % is scaled to controls: 0 for no effect and ±100 for the full control effect; nearly all actives have a fitted effect of over 55% in size
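Chicken DT40 Tdp1-/- cells stably complemented with human TDP1 were seeded at 400 cells/well in medium containing 20 nM camptothecin, exposed to pin-transferred compounds, and grown at 37 °C for at least 48 hr. Viability was read as ATP luminescence.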
TDP1 inh: TDP1 (human) enzyme inhibition; Q9NUW8; recombinant TDP1, AlphaScreen DNA substrate cleavage; Potency, µM (doses to about 130 µM), for inactives: at the top dose activity change, negative = inhibition, usual class: inhibitors; 350,000 compounds, 0.28% hits; also: potency is read from the fitted curve at half-maximal effect; % is scaled to controls: 0 for no effect and ±100 for the full control effect; nearly all actives have a fitted effect of over 40% in size
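Tdp1 1 nM final; 15 min RT w/ cpd; substrate 15 nM, 5 min; beads 10 ug/ml, 10 min; AlphaScreen read. Neg ctrl: no enzyme.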
miR-21 FLuc: miR-21 reporter, rising signal | HeLa miR-21 FLuc reporter, luciferase, 48 h | Potency, µM (top dose mostly 38.3 µM), inactives show at the highest dose reporter change, positive = more light | 340,000 tested, under 10 active | AID 2288; active = well fitted rising curve with a large enough effect; inconclusive = small, poorly fitted or top-dose-only effect; inactive = no such curve, though single readings can be large or run the other way;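 note: % of control where 0% means no effect; miR-21 action dims this reporter so a rising signal means less miR-21 action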
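Compounds were titrated across several concentrations (up to approximately 40 uM) and incubated 48 hours with HeLa miR-21-FLuc reporter cells (miR-21 target sequence downstream of FLuc, endogenous miR-21). Readout was firefly luciferase luminescence after lytic detection reagent.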
uPA generation: inhibitors of cell surface uPA generation; cell surface uPA generation assay, qHTS; 330,000 compounds, 0.31% hits; Potency, µM (series often up to 38.3 µM), for inactives: at the highest dose activity change, negative = inhibition, actives largely listed as inhibitors; active = well fitted inhibition curve with a large enough effect; inconclusive = small, poorly fitted or top-dose-only effect; inactive = no such curve, though single readings can be large or run the other way; tested in mouse RAW 264.7 cells; also: potency is read from the fitted curve at half-maximal effect; % is scaled to controls: 0 for no effect and ±100 for the full control effect; nearly all actives have a fitted effect of over 55% in size
The depositor's hits bear a star; ? = inconclusive; . = not tested or not shown; [ ] = remark or other dose. Sampled rows, rich in hits. Any-hit rate of the full collection: about 16%. Unless noted, calls follow the shape of the dose curve; as a rule, active = well fitted curve in the direction sought with a large enough effect; inconclusive = small, poorly fitted or top-dose-only effect, or another doubt; inactive = no such curve, though single readings can be large; an effect the other way counts as inactive or inconclusive.

SMILES	TDP1 cell noCPT	TDP1 cell CPT	TDP1 inh	miR-21 FLuc	uPA generation
COc1cccc(-c2ccc3ncnc(NCCc4c[nH]c5ccc(OC)cc45)c3c2)c1	21µM*	23µM*	.	.	.
O=C(CN1CCN(c2ccccc2O)CC1)Nc1ccnn1C1CCCC1	21µM*	21µM*	0%[56.1 µM]	.	?
COc1ccc(NC(=O)c2ccc(NC(=O)CN3CCN(c4ccccc4O)CC3)cc2)cc1	18µM*	18µM*	.	.	.
COc1ccc(NC(=O)c2ccc(NC(=O)CN3CCN(c4ccc(O)cc4)CC3)cc2)cc1	?	-26%	.	.	?
COc1ccc(C(=O)C2CCN(CC(=O)Nc3ccc(C)cc3)CC2)cc1	29µM*	-22%	.	0%	-2%
COc1ccc(C(=O)C2CCN(C(=O)Nc3ccc(C)cc3)CC2)cc1	?	1%	9%	-1%	-15%
CC(C)(C)c1ccc(NC(=O)CCNC(=O)c2ccco2)cc1	-17%	-18%	-1%	-12%	4%
CSc1ccccc1-c1nnc(NC(=O)Cc2ccccc2)o1	-30%	?	2%	-1%	-7%
CCN(CC)c1ccc(C(NC(=O)C(C)C)c2ccc3cccnc3c2O)cc1 (configuration not stated)	2.9µM*	2.9µM*	.	.	.
Oc1c(C(Nc2nc3ccccc3s2)c2ccco2)ccc2cccnc12 (configuration not stated)	5.2µM*	3.7µM*	11%	-4%	-6%
CC(C)C(=O)NC(c1ccco1)c1ccc2cccnc2c1O (configuration not stated)	4.6µM*	3.3µM*	12%	?	-13%
Oc1c(C(Nc2nccs2)c2ccc(C(F)(F)F)cc2)ccc2cccnc12 (configuration not stated)	?	?	3%	16%	3%
CC(C)C(=O)NC(c1ccc(N(C)C)cc1)c1ccc2cccnc2c1O (configuration not stated)	5.6µM*	4µM*	.	.	.
CC(=O)NC(c1ccco1)c1cc(F)c2cccnc2c1O (configuration not stated)	.	.	1%	.	?
Cc1sc2nc(SCc3nc(-c4cccs4)no3)n(-c3ccccc3)c(=O)c2c1C	?	-21%	-1%	-6%	3%
CCn1c(SCC(=O)N2CCCCCC2)nc2c(c1=O)SCC2	?	?	3%	1%	5%
COC(=O)C1CC1[C@H](NC(=O)c1cccnc1)c1ccccc1 (some centres not stated)	.	.	9%	.	.
Cc1ccc(C(=O)N2CCC(C(N)=O)CC2)cc1NC(=O)c1nsc2ccccc12	?	?	3%	-14%	.
CCOC(=O)C1CCN(C(=O)c2ccc(C)c(NC(=O)c3nsc4ccccc34)c2)CC1	23µM*	?	3%	0%	.
CCOC(=O)C1CCCN(C(=O)c2ccc(C)c(NC(=O)c3nsc4ccccc34)c2)C1 (configuration not stated)	18µM*	?	3%	-5%	.
Cc1ccc(C(=O)N2CCCCC2)cc1NC(=O)c1nsc2ccccc12	?	?	8%	1%	.
[O-][n+]1onc2c1CCc1c-2nn(-c2ccccc2Cl)[n+]1[O-]	15µM*	13µM*	2%	26%	?
Cc1ccc(-n2nc3c([n+]2[O-])CCc2c-3no[n+]2[O-])cc1	16µM*	?	2%	-2%	-14%
CC(C)N1C(=O)C2(OCCCO2)c2cc(Br)ccc21	-22%	-11%	.	3%	-5%
CCc1noc2c1/C(=N\O)CC(c1ccccc1)C2 (configuration not stated)	16µM*	?	5%	-13%	-1%

Additional entries
SMILES	TDP1 cell noCPT	TDP1 cell CPT	TDP1 inh	miR-21 FLuc	uPA generation
O=C(Cn1c(=O)n(-c2cccc(Cl)c2)c(=O)c2sc3ccccc3c21)NC1CCCCC1	?	23µM*	1%	-2%	.
COc1cccc(-n2c(=O)c3sc4ccccc4c3n(CC(=O)Nc3ccccc3OC)c2=O)c1	15µM*	9.2µM*	-1%	2%	.
COc1cccc(-n2c(=O)c3sc4ccccc4c3n(CC(=O)NC3CCCCC3)c2=O)c1	?	-15%	6%	-4%	.
COc1cccc(-n2c(=O)c3sc4ccccc4c3n(CC(=O)Nc3ccccc3C)c2=O)c1	-15%	6%	4%	-15%	.
CCN(CC)C(=O)CSc1nc(N)c2c3c(sc2n1)CC(C)CC3 (configuration not stated)	21µM*	?	-3%	-20%	-8%
CC1CCc2c(sc3nc(SCC(=O)NCc4ccco4)nc(N)c23)C1 (configuration not stated)	13µM*	18µM*	6%	-16%	-7%
CCOC(=O)CSc1nc(N)c2c3c(sc2n1)CCCC3	-15%	6%	4%	-9%	-5%
COc1cccc2c1cc1c(=O)n(CC(=O)N3CCCCCC3)nc(C)n12	?	18%	2%	-4%	10%
COc1ccc(-n2nc(C(=O)NCC(=O)Nc3cc(C)ccc3OC)c3ccccc3c2=O)c(OC)c1	?	?	10%	5%	1%
O=C1c2ccccc2[C@@H]2C[C@@H](O)[C@H](Nc3cccc4ccccc34)CCN12	16µM*	?	1%[56.1 µM]	.	3%
COC(=O)c1cc(-c2c(-c3cc(OC)c(OC)c(OC)c3)noc2C)cc([N+](=O)[O-])c1	16µM*	16µM*	.	10%	?
COc1ccc(-c2c(-c3cc(OC)c(OC)c(OC)c3)noc2C)cn1	0.58µM*	0.58µM*	.	4%	?
COc1cc(-c2c(-c3cc(OC)c(OC)c(OC)c3)noc2C)ccc1F	0.0073µM*	0.092µM*	.	16%	?
COc1cc(CNc2ncnc3ccc(-c4c(C)noc4C)cc23)cc(OC)c1OC	.	.	9%	.	.
COC(=O)c1cc(-c2c(-c3ccc4c(c3)OCO4)noc2-c2ccsc2)cc([N+](=O)[O-])c1	-11%	?	.	-18%	1%
COc1cc(-c2noc(C)c2C(=O)NCCO)cc(OC)c1OC	-6%	1%	.	1%	?
COc1ccc(-c2oc3ccc(-c4cc(OC)c(OC)c(OC)c4)cc3c2-c2ccc(OC)nc2)cc1	12µM*	15µM*	.	1%	6%
CCOC(=O)CSc1nc(C)c2cccc(C)c2n1	-11%	-1%	?	7%	2%
CCC1=C2CC[C@H]3C(=O)N(C)C(=O)[C@H]3[C@H]2[C@@]2(C)C(=NCc3ccccc3)OC(=O)N2C1=O	.	.	3%	.	.
Cc1[nH]c2ccccc2c1C(=O)CSc1nccc(=O)[nH]1	11%	-10%	1%	-2%	9%
Cc1[nH]c2ccccc2c1C(=O)CSc1ccc(Cl)cc1	?	23µM*	0%	-12%	2%

Compounds listed so far with an NH in an aromatic ring:
SMILES	TDP1 cell noCPT	TDP1 cell CPT	TDP1 inh	miR-21 FLuc	uPA generation
COc1cccc(-c2ccc3ncnc(NCCc4c[nH]c5ccc(OC)cc45)c3c2)c1	21µM*	23µM*	.	.	.
Cc1[nH]c2ccccc2c1C(=O)CSc1nccc(=O)[nH]1	11%	-10%	1%	-2%	9%
Cc1[nH]c2ccccc2c1C(=O)CSc1ccc(Cl)cc1	?	23µM*	0%	-12%	2%

A draw from above in order of molecular weight, falling.
SMILES	TDP1 cell noCPT	TDP1 cell CPT	TDP1 inh	miR-21 FLuc	uPA generation
COc1cc(-c2c(-c3cc(OC)c(OC)c(OC)c3)noc2C)ccc1F	0.0073µM*	0.092µM*	.	16%	?
CCOC(=O)CSc1nc(N)c2c3c(sc2n1)CCCC3	-15%	6%	4%	-9%	-5%
Cc1[nH]c2ccccc2c1C(=O)CSc1ccc(Cl)cc1	?	23µM*	0%	-12%	2%
